These results are taken from paper PMC6338342 (Journal of chromatography. B, Analytical technologies in …, 2016).

For the data set the following is noted: male, Sprague-Dawley, rat, serum, po.

For `CC(C)=CCc1cc(-c2coc3cc(O)ccc3c2=O)ccc1O` [Neobavaisoflavone, neobavaisoflavone], the mean residence time MRT inf (commonly a mean duration of stay, worked out from the concentration-time curve) (3 g/kg) came to 10.5 ± 13.5 h. The Tmax – broadly, the time at which the peak concentration occurs – (12 g/kg) was determined as 1.83 ± 0.26 h.
